Results as given in paper PMC11079024, “Identification of a family of species-selective complex I inhibitors as potential anthelmintics” (Nature Communications, 2024).

Assays:
[1] = system: L1 wild-type C. elegans (N2); assay: microbe, parasite or virus in culture; conditions: Caenorhabditis elegans, 144 h, read-out: C. elegans L1 development and viability (6-day growth)
[2] = system: L1 wild-type C. elegans (N2); conditions: normoxia

Row | SMILES | viability at 0.4 µM [1] | viability at 6.3 µM [1] | viability at 25 µM [1] | viability at […] [1] | concentration up to which there is very little effect on C. elegans normoxic growth [2]
1 | Fc1ccc(C(c2ccc(F)cc2)N2CCN(C/C=C/c3ccccc3)CC2)cc1 [Flunarizine] | 98.1% | 92.6% | 96.2% | 95.3% | 
2 | CC(C)Cc1ccc(C(C)c2nc3ccccc3n2C)cc1 (centres unmarked) [NPD8790] |  |  |  |  | greater than 500 µM
